Measurements taken from US20240207270A1, “COMPOUNDS AND COMPOSITIONS FOR MODULATING LIPID METABOLISM” (WaveBreak Inc., priority 2021, published 2024).

System: Cells expressing PABPC1-DDR2
Conditions: inhibitor final concentration 100 μM for 1 h; Bodipy-C12 1 μM; starvation; confocal microscopy; endogenously tagged PABPC1 HEK293T cell line

## N#CC(=C(/N)Sc1ccccc1N)/C(C#N)=C(\N)Sc1ccccc1N [Compound U-0126]
  Score (lipid effects, LD formation): 0
